The values below come from ChEMBL document CHEMBL5506067, “Searching for Synthetic Opioid Rescue Agents: Identification of a Potent Opioid Agonist with Reduced Respiratory Depression” (J Med Chem, 2024).

Protein sequences, listed by entry. Tags and fused reporters are not part of them.
UniProt P41146, whole entry: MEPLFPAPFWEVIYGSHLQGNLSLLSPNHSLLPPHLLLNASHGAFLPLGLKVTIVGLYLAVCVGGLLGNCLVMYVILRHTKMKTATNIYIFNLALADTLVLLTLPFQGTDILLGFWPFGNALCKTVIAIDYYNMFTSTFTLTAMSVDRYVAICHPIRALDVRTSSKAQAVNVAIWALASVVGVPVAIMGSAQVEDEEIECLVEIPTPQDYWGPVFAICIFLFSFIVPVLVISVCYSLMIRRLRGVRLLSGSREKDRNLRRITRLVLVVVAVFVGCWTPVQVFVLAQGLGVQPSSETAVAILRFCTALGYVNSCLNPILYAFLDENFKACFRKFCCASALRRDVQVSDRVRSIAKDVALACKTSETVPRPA

The target in the test is Nociceptin receptor (Homo sapiens, UniProt P41146). The test can be described thus: Agonist activity at human NOR expressed in CHO-K1 cells assessed as decrease in cAMP level incubated for 30 mins in presence of forskolin by HitHunter cAMP analysis relative to control. Particulars: filed as agonist. A general note: Changes in cAMP serve as a functional read-out for many G protein-coupled receptors.

Structures are written as SMILES.

As a reminder, the Emax is the maximal effect, on the per cent scale that the assay sets. Turning to `CN(C)[C@]1(c2ccc(Br)cc2)CC[C@](O)(CCc2ccccc2)CC1`, the Emax was determined as 101%.
